How the values were obtained:
IPC298 cells = assay: IPC298 Cell Titer Glow assay (CTG)
HCT116 cells = assay: HCT116 Cell Titer Glow assay (CTG)

## CNS(=O)(=O)Nc1nccc(Cc2cncc(OC(=O)N(C)C)c2C)c1F
IPC298 cells; 72 hours, 100 uM, percent cells remaining after treatment
  CTG % cell viability 100 uM IPC298.2: 94.66%
IPC298 cells; read-out: CTG IC50 (nM) Cell Line: IPC298.2, 72 hours
  IC50: > 1000 nM
HCT116 cells; 72 hours, 1000 uM, percent cells remaining after treatment
  CTG % cell viability 1000 uM HCT116.20: 93.19%
HCT116 cells; read-out: CTG IC50 (nM) Cell Line: HCT116.20, 72 hours
  IC50: > 1000 nM

— patent US20250288571A1 (Nested Therapeutics, Inc., priority 2024, published 2025)
